Apparent affinities of Ab-14 variants for a coronavirus HR2 peptide

The target is the same throughout: PDVDLGDISGINAS, from the HR2 region of SARS-CoV-2 spike.

Parent scFv Ab-14: VH joined to VL by three GGGGS repeats. Changes lie in the light chain CDRs alone.
VH: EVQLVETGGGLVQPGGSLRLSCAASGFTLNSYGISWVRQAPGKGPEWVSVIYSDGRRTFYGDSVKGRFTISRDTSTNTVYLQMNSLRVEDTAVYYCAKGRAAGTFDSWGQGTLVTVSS
VL: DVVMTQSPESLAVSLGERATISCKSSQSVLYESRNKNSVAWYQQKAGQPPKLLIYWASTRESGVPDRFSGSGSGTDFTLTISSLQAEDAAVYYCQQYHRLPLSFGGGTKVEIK

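The parent was found by panning a naive human phage display library on the peptide. In library AAYL50, one, two or three CDR residues were substituted; doubles and triples were drawn at random. Affinity was read by AlphaSeq, a pooled yeast mating assay with surface-displayed partners. Binding brings cells together so that they mate, and sequencing counts the barcode pairs among the diploids. Read counts were normalised to the haploid input and turned into Kd by a linear fit to BCL2-family pairs of known affinity, for each replicate. Mating was done three times.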

Variants are written as CDR1, CDR2 and CDR3 of the light chain (limits as in the source). Parent: KSSQSVLYESRNKNSVA, WASTRES, QQYHRLPLS.
This list gathers variants with a substitution at K36 (VL, numbered from residue 1).
Numbers give log10(Kd / nM), so 0 is 1 nM and 3 is 1 µM. Smaller is tighter.
The mean shown is taken over the replicates in which the pair was detected.
Where no diploid with the target was found in that replicate, the entry reads "nd": below detection, most likely a poor binder, though not proof of it.
Empty control strains, which show no peptide, gave a signal in 18% of pairings with library AAYL50; the median was 4.19 and 95% of these signals were weaker than 2.99. No background was subtracted. The control count says in how many pairings with the empty strains this scFv gave a signal.
For reference, the parent read 0.65 as the reference entry and 1.68 as a member of this library.

- ISSQSVLYESRNWNSVA, WISTRES, QQYHRLPLS = 4.96, nd, 5.66 (mean 5.31; controls 3 of 9)
- KSSQSVLYESRNCMSVA, WASTRES, QQYHRLPGS = 3.79, 3.98, nd (mean 3.89; controls 2 of 9)
- KSSQSVLYESRNENVVA, WASTREL, QQYHRLPLS = nd, nd, nd (controls 0 of 9)
- KSFQSVLYESRNDNSVA, WASTRES, QQYHRLDLS = nd, nd, nd (controls 0 of 9)
- KSSQSVLYESREVNSVA, WASTRES, QQYHRLPLS = 3.54, 3.04, 3.86 (mean 3.48; controls 4 of 9)
- KSSQSVLYESRNLNSVA, WASTREK, QPYHRLPLS = nd, 3.86, nd (controls 2 of 9)
- KSSQSVLYESRPFNSVA, WASTRES, QQYHRGPLS = 1.17, 1.36, 1.30 (mean 1.27; controls 5 of 9)
- KSSQEVLYESRCVNSVA, WASTRES, QQYHRLPLS = 2.21, 1.70, 1.81 (mean 1.91; controls 1 of 9)
- KSSQSVLYESRNVNSRA, WASTRES, QQYHRLPCS = nd, nd, nd (controls 0 of 9)
- KSSQSVLYESINHNSVA, WASTRTS, QQYHRLPLS = 1.97, 1.96, 2.06 (mean 2.00; controls 2 of 9)
- SSSQSVLYEGRNCNSVA, WASTRES, QQYHRLPLS = 0.27, 0.35, 1.01 (mean 0.54; controls 0 of 9)
- KSSQSVLYESRNCNSVA, WALWRES, QQYHRLPLS = 4.40, nd, nd (controls 1 of 9)
- KSSQSVLYESRNWNSVA, WASTRES, QQYHRLPLS = 1.25, 1.50, 2.24 (mean 1.66; controls 3 of 9)
- KSSQSVLYESRNGNSVA, WASTRES, GQYHRLPLS = 1.30, 1.46, 1.30 (mean 1.35; controls 4 of 9)
- KSVQSVLYESRNPNSVA, WASQRES, QQYHRLPLS = 0.70, 0.91, 0.96 (mean 0.86; controls 5 of 9)
- SSSQSVLYESRNWNSVA, WASTRES, QQYHRLPGS = 1.22, 1.48, 1.27 (mean 1.32; controls 3 of 9)
- KSSQSKLYESRNDNSVA, WASTRES, QQYHRLYLS = nd, nd, nd (controls 1 of 9)
- QSSQSVLYESRNCNWVA, WASTRES, QQYHRLPLS = nd, nd, nd (controls 1 of 9)
- KSYQSVLYESRNYNSVA, WASTRES, AQYHRLPLS = 2.05, 1.95, 1.99 (mean 2.00; controls 3 of 9)
- KSSQSVLYEFRNRYSVA, WASTRES, QQYHRLPLS = 1.48, 1.20, 1.83 (mean 1.50; controls 0 of 9)
- KSSQSVLYESRNSNMVA, WASTRES, QQYHRLPLS = nd, nd, nd (controls 0 of 9)
- KSSQSVQYESRNRNSVA, WASTRES, QQIHRLPLS = 5.69, nd, nd (controls 1 of 9)
- KSSQSVIYESRNHNSVA, WASTRES, QQYHRLPLS = 1.59, 1.67, 1.61 (mean 1.62; controls 0 of 9)
- KWSQSVLYESRNMNSVA, WASTRES, NQYHRLPLS = nd, nd, nd (controls 1 of 9)
- KSSQSVLYESRNFNTCA, WASTRES, QQYHRLPLS = nd, 3.07, nd (controls 1 of 9)
- KSSQSVLYESRNSNSVA, WMSTREM, QQYHRLPLS = 3.15, 2.52, 3.29 (mean 2.99; controls 2 of 9)
- KSSQSVLYESRNCNSVA, WAGTRES, QQYHRLPLC = 2.98, 2.99, 3.04 (mean 3.00; controls 2 of 9)
- PSSQSVLYESRNSNSVA, WASTRES, QQYHRLPLS = 3.67, nd, nd (controls 0 of 9)
- KSSQSVLYDSRNENSVA, WASTRES, QQYHRSPLS = 3.47, 3.53, 2.87 (mean 3.29; controls 7 of 9)
- KSSQSVLYESRNGNSVA, WAYTREL, QQYHRLPLS = 1.40, 1.55, 1.70 (mean 1.55; controls 1 of 9)
- KSSQSVLYESRNANSVA, WASTRVS, QQYVRLPLS = 1.50, 1.53, 1.80 (mean 1.61; controls 2 of 9)
- KSSQSVLYESRNANAVA, WASTRES, QQYHRLPLS = 0.49, 0.85, 0.49 (mean 0.61; controls 1 of 9)
- KDSQSVLYESRNENSVA, WYSTRES, QQYHRLPLS = nd, nd, nd (controls 1 of 9)
- KSSQSVFYESRNENSVA, WASTRES, EQYHRLPLS = 4.14, nd, nd (controls 2 of 9)
- KSSQSVLYESRNWNSVC, WASTRES, QQYHRLVLS = nd, nd, nd (controls 3 of 9)
- KSSQSVLFESRNVNSVG, WASTRES, QQYHRLPLS = nd, nd, 3.26 (controls 4 of 9)

5 of these entries, quoted again:

- QSSQSVLYESRNCNWVA, WASTRES, QQYHRLPLS -> nd, nd, nd (controls 1 of 9)
- KSSQSVIYESRNHNSVA, WASTRES, QQYHRLPLS -> 1.59, 1.67, 1.61 (mean 1.62; controls 0 of 9)
- KSSQSVLYESRNSNMVA, WASTRES, QQYHRLPLS -> nd, nd, nd (controls 0 of 9)
- KSSQSVLYESRNLNSVA, WASTREK, QPYHRLPLS -> nd, 3.86, nd (controls 2 of 9)
- KSSQSVLYESINHNSVA, WASTRTS, QQYHRLPLS -> 1.97, 1.96, 2.06 (mean 2.00; controls 2 of 9)

Data: MIT Lincoln Laboratory AlphaSeq set, Engelhart et al. 2022, doi:10.1038/s41597-022-01779-4, as distributed in FLAb.